Results on one substance are retold here after patent publication US20110206732A1 (priority 2007, published 2011).

For data set [1] the following is noted: animal models; cited from earlier work.
In data set [2] the test system is Primary canine mammary tumour cells. Format: cell-based. The settings on record: 20% (w/v) albumin, 24 hour incubation, trypan blue.
Data set [3] relates to MT4 cell line. Format: cell-based. The note with it: 20% (w/v) albumin, 24 hour incubation, trypan blue.
For data set [4], the system named is different neoplastic cell types, both in suspension and adherent. Kind of data set: Light microscopy, hematoxylin-eosin staining, death of cultured cells. Format: cell-based. The note with it: albumin in physiologic solution 2% to 50% (preferably 10% to 20%) w/v, within 8-24 hours of incubation. The protocol:
in suspension: lymphoblastic leukaemia cell lines such as H9, MT2, MT4, THP-1 and U937 monocytic leukaemia cell lines, K562 erythroid leukaemia cell lines;
adherent: Hep-G2 hepatocarcinoma cell lines, primary canine hepatocarcinoma cells, primary human mammary tumour cells, primary canine mammary tumour cells, human glioblastoma cells.
The cells were washed three times by centrifuging at 160 g for 10 min at room temperature in phosphate buffer (PBS, pH 7.2) and resuspended into 50 ml tubes (Nunc, Kamstrup, Denmark) at a final concentration of 10×10^6 cells/ml, again in phosphate buffer (PBS, pH 7.2).
The cells were resuspended at a final concentration of 1×10^6 cells/ml into six-well plates (Lab-Tek chamber slides, Nunc, Kamstrup, Denmark) in 4 ml/well of final solution consisting of common RPMI 1640 culture medium (GIBCO) supplemented with: • 10% FCS (Celbio, Milan, Italy); • 100 units/ml penicillin; • 100 μg/ml streptomycin; • 160 mg/L gentamycin (Schering-Plough, Milan, Italy); • 2 mM L-glutamine (Life Technologies; growth medium).
The cells were incubated for 3 days in a thermostatically controlled Heraeus incubator at a temperature of 37° C. under an atmosphere having a constant supply of 5% CO2 (v/v in air).
The cells were monitored hourly for a total of three days of culture. […]

Data set [5] concerns HEP-G2 cell line. Format: cell-based. The settings on record: 20% (w/v) albumin, 24 hour incubation, trypan blue.
In data set [6] the test system is Primary canine hepatocarcinoma cells. Format: cell-based. The settings on record: 20% (w/v) albumin, 24 hour incubation, trypan blue.
Data set [7] deals with Human glioblastoma cells. Format: cell-based. The note with it: 20% (w/v) albumin, 24 hour incubation, trypan blue.
In data set [8] the test system is Primary human mammary tumour cells. Format: cell-based. The note with it: 20% (w/v) albumin, 24 hour incubation, trypan blue.
Data set [9] concerns THP-1 cell line. Format: cell-based. The settings on record: 20% (w/v) albumin, 24 hour incubation, trypan blue.
In data set [10] the test system is MT2 cell line. Format: cell-based. The settings on record: 20% (w/v) albumin, 24 hour incubation, trypan blue.
Data set [11] deals with H9 cell line. Format: cell-based. The note with it: 20% (w/v) albumin, 24 hour incubation, trypan blue.
Data set [12] relates to K562 cell line. Format: cell-based. The note with it: 20% (w/v) albumin, 24 hour incubation, trypan blue.
The subject of data set [13] is U937 cell line. Format: cell-based. The note with it: 20% (w/v) albumin, 24 hour incubation, trypan blue.

albumin: in data set [1], the acute toxicity result was “No signs of acute toxicity”. The MORTALITY in data set [2] was found to be 70%; in [3] it was 81%; in [5] it was 80%; in [6], 72%; in data set [7], 89%; in data set [8] it was 88%. Moreover, the MORTALITY in data set [9] is listed as 82%; in [10], 85%; in data set [11], 90%; in [12], 81%; in data set [13] it was 86%. The VIABILITY in data set [2] is given as 30%; in [5], 20%; in data set [8], 12%; in data set [11] it was 10%. In [4], the “cultured cells caused to die” value was 50-100%.
